Data published in US20240002326A1, “COMPOUNDS AND USE THEREOF IN METHODS OF TREATMENT” (The University of Queensland, priority 2016, published 2024).

Sequences of proteins named here, by UniProt entry; tags and fusion partners are left off. Residues count along the entry.
UniProt P43680, 69-177 limits assumed: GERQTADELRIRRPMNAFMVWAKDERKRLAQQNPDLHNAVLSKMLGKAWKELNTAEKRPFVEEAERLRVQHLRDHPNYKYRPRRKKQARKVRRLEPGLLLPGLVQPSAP

Columns and labels:
[1] = test system: combined activity of Sox7 and Sox18; experiment: Zebrafish tg(−6.5kdrl:eGFP) SoxF reporter; format: in vivo
Protocol: Total RNA was extracted using RNeasy mini kit (Qiagen, 74106) according to the manufacturers protocol, including on column DNA digestion. cDNA was synthetized from 1 μg of purified RNA using the high capacity cDNA reverse transcription kit (Life Technologies, 4368813). Amplification and quantitation of target cDNA was performed in technical triplicate of at least 3 biological replicates using the SYBR green (Life Technologies, 4312704) methods. Reactions were run in 10 μL in 384-well plates using the ViiA 7 Real-Time PCR system. Housekeeper genes (β-actin for tg(Dll4 in3:eGFP), ef1α for tg(−6.5kdrl:eGFP), chd5 for tg(flila:eGFP, −6.5kdrl:mCherry), RPL13 and GAPDH for HUVECs) were selected based on the stability of their expression throughout the set of experimental conditions, or chosen on grounds of their vascular expression to normalize to endothelial cell content. Primer efficiencies were calculated using LinRegPCR, and amplification data was analysed using ViiA7 software and the Q-gene PCR analysis template.
Zebrafish were maintained as previously described (Hogan et al. 2009), and all procedures involving animals conformed to guidelines of the animal ethics committee at the University of Queensland (IMB/030/16/NHMRC/ARC/HF) or were approved by local ethical review and licensed by the UK Home Office (PPL 30/2783 and PPL 30/3324). […]

SOX18[109] HMG fragment = SOX18[109] HMG fragment (Mus musculus (Mouse), UniProt P43680); experiment: FP DNA-binding competition assay, SOX18[109] HMG fragment

Structure (SMILES): O=C(O)c1c(O)cccc1CCc1ccc2ccccc2c1
- reduction of SOX18-dependent egfp transcript levels ([1]; 1 μM Sm4 from 20 hpf, qRT-PCR): 61%
- toxicity in zebrafish embryos ([1]; treated at 20 hpf): no evidence of toxicity
- SOX18-DNA binding inhibition (FP, words) (SOX18[109] HMG fragment; SAR library, SOX18[109]): inhibit both DNA and PPI
- IC50 (SOX18[109] HMG fragment; read-out: DNA-binding inhibition IC50, SOX18 HMG, HMG only fragment): 200 to 220 µM
